Experimental data reported in ChEMBL document CHEMBL1157641, “Carbonic anhydrase inhibitors. Inhibition of mammalian isoforms I-XIV with a series of natural product polyphenols and phenolic acids” (Bioorg Med Chem, 2010).

The chains behind the UniProt entries cited, without tags or fusion partners. Where a name states a change or a piece, a line headed by the entry shows the natural chain unless it says otherwise.
UniProt Q9Y2D0: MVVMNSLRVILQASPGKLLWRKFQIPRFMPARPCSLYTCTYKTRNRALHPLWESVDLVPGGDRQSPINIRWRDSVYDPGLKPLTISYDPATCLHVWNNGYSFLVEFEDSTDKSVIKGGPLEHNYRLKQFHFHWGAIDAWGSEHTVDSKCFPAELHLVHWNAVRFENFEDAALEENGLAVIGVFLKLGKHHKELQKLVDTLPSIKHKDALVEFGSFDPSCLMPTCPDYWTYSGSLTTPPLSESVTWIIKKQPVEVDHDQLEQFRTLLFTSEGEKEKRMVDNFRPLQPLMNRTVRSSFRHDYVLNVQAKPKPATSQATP

Legend:
[1] = molecular target: Carbonic anhydrase 5B, mitochondrial (Homo sapiens, UniProt Q9Y2D0)
Carbonic anhydrase 2 = Carbonic anhydrase 2 (Homo sapiens, UniProt P00918)

Ki [1]: 7.13 µM | Ki (Carbonic anhydrase 2): 0.87 µM
Structure (SMILES): O=C(O)c1ccc(O)cc1 [PARABEN]
